The record followed here is PMC11004252.

The assay addresses phospho-Ser 2 carboxy-terminal domain (CTD) RNA polymerase II (human (endogenous in hSAECs)) (UniProt P24928). Kind of assay: proximity ligation; Duolink in situ PLA of BRD4 and pSer2 Pol II, hSAECs transfected with FLAG-BRD4 lentivirus, fixed, RSV infected (MOI 1, 24 h).

With “FLAG-BRD4 (from UniProt O60885 1-1362) (natural protein; phospho-Ser 2 of the carboxy-terminal domain (CTD); other documents disagree on this pair)”, the fold induction of PLA complexes, RSV against mock turned out to be 19 fold and the percent of cells with PLA foci (RSV infected) was > 80 % of cells.
